Measurements: US7888393B2, “Transdermal compositions” (Microdermis Corporation, priority 2002, dated 2011)

Assay: pH of quaternary compounds, fatty acids and their reaction products in water (calibrated pH meter)
Type: physicochemical
Conditions: for pH of Quat and Stearic Acid: 70-75 °C, stearic acid 40 g, ten minutes after acid addition; for pH of quaternary compound: mixed with distilled water (2,000 g), before heating
Method: Example 2 was repeated employing the fatty acids; Conjugated Linoleic Acid (CLA); eicosapentaenoic acid (EPA); and gamma linolenic acid (GLA), were all dissolved in water and the pH of the resulting solutions were measured with a calibrated pH meter.
Three solutions of DDAC (188.2 g) in distilled water (2,000 g) were contacted with masses of CLA, EPA and GLA, such that the molar ratio of DDAC to each of the aforementioned fatty acids was 1:1 at a temperature of 70° C. to 75° C. and after 10 minutes the pH of the reaction products of each of these products was measured.
Merquat 550 is a trademark owned by Calgon, Inc. its manufacturer, for a proprietary cationic polymer having a repeating unit molecular weight of 680 and an overall molecular weight of about 10,000. The pH of these first transdermal compositions were measured. […] Ten minutes after acid addition, the pH of the product composition were measured.

Substance | pH of Quat and Stearic Acid | pH of quaternary compound
dimethyl benzethonium chloride [DMBC] | 3.01 | 5.02
monomethyl benzethonium chloride [MMBC] | 2.32 | 4.47
